Experimental data from BindingDB's records for 11960499.

Protein sequences, listed by entry. Tags and fused reporters are not part of them. Residues count along the entry.
UniProt P02768, 25-609 limits assumed: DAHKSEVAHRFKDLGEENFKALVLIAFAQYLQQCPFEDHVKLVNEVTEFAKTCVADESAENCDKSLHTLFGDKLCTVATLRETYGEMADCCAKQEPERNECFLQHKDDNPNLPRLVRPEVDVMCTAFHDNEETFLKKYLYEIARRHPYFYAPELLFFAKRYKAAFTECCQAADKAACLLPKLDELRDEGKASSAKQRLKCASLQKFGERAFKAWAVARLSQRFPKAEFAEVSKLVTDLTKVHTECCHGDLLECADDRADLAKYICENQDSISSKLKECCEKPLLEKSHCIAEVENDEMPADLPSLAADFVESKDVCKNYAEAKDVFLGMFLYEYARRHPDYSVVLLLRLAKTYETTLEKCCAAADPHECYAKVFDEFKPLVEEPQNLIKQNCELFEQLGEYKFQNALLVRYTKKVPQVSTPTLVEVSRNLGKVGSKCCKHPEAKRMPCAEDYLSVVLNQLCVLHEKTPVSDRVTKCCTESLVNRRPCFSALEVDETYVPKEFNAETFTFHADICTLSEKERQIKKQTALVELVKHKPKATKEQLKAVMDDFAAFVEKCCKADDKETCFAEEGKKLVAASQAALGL

Molecular target: Albumin (Homo sapiens, UniProt P02768)
Assay: Inhibitory concentration bound to tryptophan containing region of Serum albumin in fluorescence quenching

## [N-]=[N+]=NC(F)(F)C(Cl)Br (stereo unspecified)
  IC50: 300 µM
